From ChEMBL document CHEMBL4680234, “Antibacterial AZT derivative regulates metastasis of breast cancer cells” (Eur J Med Chem, 2020) come the findings set out here.

Common to all, as to type: functional
For experiment [1], the system named is Staphylococcus aureus. The experiment can be described thus: Antimicrobial activity against methicillin-resistant Staphylococcus aureus CCARM 3095 assessed as reduction in microbial growth incubated for 18 to 24 hrs by broth microdilution method. The following applies: time 18-24 hrs. For orientation: In broth dilution the organism is exposed to a series of concentrations in liquid medium.

The test system of experiment [2] is Staphylococcus aureus. The experiment can be described thus: Antibacterial activity against Staphylococcus aureus KCTC 1621 assessed as reduction in bacterial growth incubated for 18 to 22 hrs by spectrophotometry based broth microdilution method. To be noted: time 18-22 hrs, read-out: MIC100.
The test system of experiment [3] is Staphylococcus aureus. The experiment can be described thus: Antimicrobial activity against methicillin-resistant Staphylococcus aureus CCARM 3089 assessed as reduction in microbial growth incubated for 18 to 24 hrs by broth microdilution method. To be noted: time 18-24 hrs.
The test system of another experiment is Bacillus subtilis. The experiment in a line: Antibacterial activity against Bacillus subtilis KCTC 3068 assessed as reduction in bacterial growth incubated for 18 to 22 hrs by spectrophotometry based broth microdilution method. The following applies: time 18-22 hrs, read-out: MIC100.
Experiment [4] has as its system Staphylococcus aureus. The experiment in a line: Antimicrobial activity against methicillin-resistant Staphylococcus aureus CCARM 3090 assessed as reduction in microbial growth incubated for 18 to 24 hrs by broth microdilution method. To be noted: time 18-24 hrs.
The subject of the next experiment is Pseudomonas aeruginosa. The experiment in a line: Antibacterial activity against Pseudomonas aeruginosa KCTC 1637 assessed as reduction in bacterial growth incubated for 18 to 22 hrs by spectrophotometry based broth microdilution method. To be noted: time 18-22 hrs, read-out: MIC100.
In a further experiment the test system is Escherichia coli. The experiment in a line: Antibacterial activity against Escherichia coli KCTC 1682 assessed as reduction in bacterial growth incubated for 18 to 22 hrs by spectrophotometry based broth microdilution method. The following applies: time 18-22 hrs, read-out: MIC100.

SMILES strings stand for the structures. ≈ marks a conversion by molar mass, not a printed value.

For `CC[C@H](C)[C@H](NC(=O)CN)C(=O)NCC(=O)N[C@@H](C)C(=O)N[C@H](C(=O)N[C@@H](CC(C)C)C(=O)N[C@@H](CCCCN)C(=O)N[C@H](C(=O)N[C@@H](CC(C)C)C(=O)N[C@H](C(=O)N[C@H](C(=O)NCC(=O)N[C@@H](CC(C)C)C(=O)N1CCC[C@H]1C(=O)N[C@@H](C)C(=O)N[C@@H](CC(C)C)C(=O)N[C@H](C(=O)N[C@@H](CO)C(=O)N[C@@H](Cc1c[nH]c2ccccc12)C(=O)N[C@H](C(=O)N[C@@H](CCCCN)C(=O)N[C@@H](CCCNC(=N)N)C(=O)N[C@@H](CCCCN)C(=O)N[C@@H](CCCNC(=N)N)C(=O)N[C@@H](CCC(N)=O)C(=O)N[C@@H](CCC(N)=O)C(N)=O)[C@@H](C)CC)[C@@H](C)CC)[C@@H](C)O)[C@@H](C)O)C(C)C)C(C)C` [MELITTIN], the MIC in the experiment on Staphylococcus aureus [1] amounted to 16 µg/mL; in the experiment with Staphylococcus aureus [2], 8 µg/mL (≈ 2.81 µM); in the experiment on Staphylococcus aureus [3] it was 16 µg/mL; in the experiment on Bacillus subtilis, 8 µg/mL (≈ 2.81 µM); with Staphylococcus aureus [4] it was 16 µg/mL; in the experiment on Pseudomonas aeruginosa it was 16 µg/mL (≈ 5.62 µM). The MIC in the experiment with Escherichia coli was determined as 16 µg/mL (≈ 5.62 µM).
